pIC50: −log10 of the molar value.

Chains of the proteins cited; added tags and fusions are not shown.
UniProt P31645, whole entry: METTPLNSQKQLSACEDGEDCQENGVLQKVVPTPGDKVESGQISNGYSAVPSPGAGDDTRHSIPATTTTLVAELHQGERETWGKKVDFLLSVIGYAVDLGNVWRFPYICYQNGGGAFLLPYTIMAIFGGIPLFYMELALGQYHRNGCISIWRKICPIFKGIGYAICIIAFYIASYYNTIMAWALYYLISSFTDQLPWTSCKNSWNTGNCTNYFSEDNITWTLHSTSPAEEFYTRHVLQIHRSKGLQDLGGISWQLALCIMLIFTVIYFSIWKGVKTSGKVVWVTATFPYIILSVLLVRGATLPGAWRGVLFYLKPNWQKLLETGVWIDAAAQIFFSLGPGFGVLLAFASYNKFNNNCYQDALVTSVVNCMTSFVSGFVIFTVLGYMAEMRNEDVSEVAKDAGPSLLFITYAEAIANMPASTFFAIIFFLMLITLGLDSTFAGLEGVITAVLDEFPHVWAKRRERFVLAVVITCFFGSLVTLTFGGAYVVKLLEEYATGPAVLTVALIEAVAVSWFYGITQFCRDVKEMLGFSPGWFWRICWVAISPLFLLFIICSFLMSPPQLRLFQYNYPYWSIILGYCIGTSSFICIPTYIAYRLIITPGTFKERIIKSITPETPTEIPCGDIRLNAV
UniProt P23975, whole entry: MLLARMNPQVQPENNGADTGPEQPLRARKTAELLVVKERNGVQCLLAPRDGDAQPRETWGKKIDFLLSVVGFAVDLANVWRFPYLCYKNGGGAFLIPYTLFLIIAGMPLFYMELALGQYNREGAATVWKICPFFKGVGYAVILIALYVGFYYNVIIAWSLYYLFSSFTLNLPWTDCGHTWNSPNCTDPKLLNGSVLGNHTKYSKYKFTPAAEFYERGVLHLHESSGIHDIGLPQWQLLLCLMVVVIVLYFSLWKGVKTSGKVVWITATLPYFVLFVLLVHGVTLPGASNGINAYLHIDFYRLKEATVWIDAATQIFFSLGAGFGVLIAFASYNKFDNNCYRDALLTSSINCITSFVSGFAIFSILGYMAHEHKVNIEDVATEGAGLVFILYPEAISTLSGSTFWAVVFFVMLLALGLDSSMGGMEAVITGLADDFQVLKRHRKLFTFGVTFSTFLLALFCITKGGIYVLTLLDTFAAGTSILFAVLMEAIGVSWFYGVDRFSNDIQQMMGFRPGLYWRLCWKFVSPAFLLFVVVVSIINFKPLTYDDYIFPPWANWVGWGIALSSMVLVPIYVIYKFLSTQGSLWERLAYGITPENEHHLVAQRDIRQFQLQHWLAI

The first test deals with Sodium-dependent serotonin transporter (Homo sapiens, UniProt P31645). Type of test: cell-based, HEK293.
In turn, `CNC[C@H]1Cc2ccccc2[C@@H](c2ccc(Cl)c(Cl)c2)C1` gave a pIC50 of 7.80. Still for that read-out and setting: the result for `CN[C@@H]1Cc2ccccc2[C@@H](c2ccc(Cl)c(Cl)c2)C1` reads 6.90. Still for that read-out and setting: the result for `CNC[C@@H]1Cc2ccccc2[C@@H](c2ccc(Cl)c(Cl)c2)C1` reads 7.27; that for `CN[C@H]1CCc2ccccc2[C@H]1c1ccc(Cl)c(Cl)c1`, 5.55; that for `NC[C@H]1Cc2ccccc2[C@H](c2ccc(Cl)c(Cl)c2)C1`, 9.00. The same measure, in the same setting: the result for `NC[C@@H]1Cc2ccccc2[C@@H](c2ccc(Cl)c(Cl)c2)C1` reads 7.21; that for `CN(C)[C@@H]1Cc2ccccc2[C@H](c2ccc(Cl)c(Cl)c2)C1`, 8.52; that for `CN(C)C[C@@H]1Cc2ccccc2[C@H](c2ccc(Cl)c(Cl)c2)C1` (racemic), 6.51.

`CN[C@@H]1CCc2ccccc2[C@@H]1c1ccc(Cl)c(Cl)c1` gave a pIC50 of 5.71. The same measure, in the same setting: the result for `CN[C@H]1CCc2ccccc2[C@@H]1c1ccc(Cl)c(Cl)c1` reads 7.38. In turn, `N[C@H]1Cc2ccccc2[C@@H](c2ccc(Cl)c(Cl)c2)C1` had a pIC50 of 6.97. This pIC50 lies 0.41 log units lower than the previous one.

Turning to `CN[C@@H]1Cc2ccccc2[C@H](c2ccc(Cl)c(Cl)c2)C1`, the pIC50 was 8.10. Against the preceding molecule, the pIC50 is 1.13 log units higher. Turning to `N[C@@H]1Cc2ccccc2[C@H](c2ccc(Cl)c(Cl)c2)C1`, the pIC50 is 7.08. This pIC50 lies 1.02 log units lower than the previous one. `N[C@@H]1Cc2ccccc2[C@@H](c2ccc(Cl)c(Cl)c2)C1` gave a pIC50 of 5.74. Still for that read-out and setting: the result for `CN[C@@H]1CCc2ccccc2[C@H]1c1ccc(Cl)c(Cl)c1` reads 5.60. Still for that read-out and setting: the result for `CN(C)[C@H]1Cc2ccccc2[C@@H](c2ccc(Cl)c(Cl)c2)C1` reads 7.70; that for `CN(C)[C@@H]1Cc2ccccc2[C@@H](c2ccc(Cl)c(Cl)c2)C1`, 6.97. The same measure, in the same setting: the result for `NC[C@H]1Cc2ccccc2[C@@H](c2ccc(Cl)c(Cl)c2)C1` reads 7.72.

`CNC[C@@H]1Cc2ccccc2[C@H](c2ccc(Cl)c(Cl)c2)C1` showed a pIC50 of 7.64. This pIC50 and that of the molecule before are within 0.2 log units of each other. The same measure, in the same setting: the result for `CN(C)C[C@H]1Cc2ccccc2[C@H](c2ccc(Cl)c(Cl)c2)C1` (mixture of isomers) reads 6.01.

For a further test, the target named is Sodium-dependent noradrenaline transporter (Homo sapiens, UniProt P23975). Type of test: cell-based, MDCK.
`CN[C@@H]1Cc2ccccc2[C@@H](c2ccc(Cl)c(Cl)c2)C1` showed a negative-log IC50 (pIC50) of 6.93. Same read-out and setting: the result for `CN[C@@H]1Cc2ccccc2[C@H](c2ccc(Cl)c(Cl)c2)C1` reads 7.35.

The values are drawn from ChEMBL document CHEMBL1641414, “Synthesis and pharmacological evaluation of 4-(3,4-dichlorophenyl)-N-methyl-1,2,3,4-tetrahydronaphthalenyl amines as triple reuptake inhibitors” (Bioorg Med Chem, 2011).
